Measured values published in US10058100B2, “Hydrogen sulfide releasing compounds and their use” (THE UNIVERSITY OF EXETER, priority 2011, dated 2018).

Tested on: Human brain microvascular endothelial cells (HMEC)
Experiment: Prevention of cell death induced by oxidants (SIN-1, H2O2, 4-HNE), Alamar Blue
Type: cell-based

morpholin-4-ium 4-methoxyphenyl(morpholino) phosphinodithioate
cell death induced by 4-HNE (4-HNE 10 μM, GYY4137 100 μM and 500 μM, FIG. 11): significantly inhibited | SIN-1 and 4-HNE induced cell death (HCMEC/D3 cells, GYY4137 500 μM, FIG. 4, p<0.001): significantly inhibited | cell death induced by SIN-1 (SIN-1 500 μM, GYY4137 100 μM and 500 μM, FIG. 9): significantly inhibited | concentration mediating inhibition of cell death, mitochondrial dysfunction and oxidative stress (cells challenged with physiological oxidant species): 100 to 500 µM
